Experimental data reported in ChEMBL document CHEMBL3098022, “Multifunctional cholinesterase and amyloid Beta fibrillization modulators. Synthesis and biological investigation” (ACS Med Chem Lett, 2013).

Protein sequences, listed by entry. Tags and fused reporters are not part of them. Lines headed by an entry give the natural chain unless they say otherwise; changes in a name come on top.
UniProt P22303: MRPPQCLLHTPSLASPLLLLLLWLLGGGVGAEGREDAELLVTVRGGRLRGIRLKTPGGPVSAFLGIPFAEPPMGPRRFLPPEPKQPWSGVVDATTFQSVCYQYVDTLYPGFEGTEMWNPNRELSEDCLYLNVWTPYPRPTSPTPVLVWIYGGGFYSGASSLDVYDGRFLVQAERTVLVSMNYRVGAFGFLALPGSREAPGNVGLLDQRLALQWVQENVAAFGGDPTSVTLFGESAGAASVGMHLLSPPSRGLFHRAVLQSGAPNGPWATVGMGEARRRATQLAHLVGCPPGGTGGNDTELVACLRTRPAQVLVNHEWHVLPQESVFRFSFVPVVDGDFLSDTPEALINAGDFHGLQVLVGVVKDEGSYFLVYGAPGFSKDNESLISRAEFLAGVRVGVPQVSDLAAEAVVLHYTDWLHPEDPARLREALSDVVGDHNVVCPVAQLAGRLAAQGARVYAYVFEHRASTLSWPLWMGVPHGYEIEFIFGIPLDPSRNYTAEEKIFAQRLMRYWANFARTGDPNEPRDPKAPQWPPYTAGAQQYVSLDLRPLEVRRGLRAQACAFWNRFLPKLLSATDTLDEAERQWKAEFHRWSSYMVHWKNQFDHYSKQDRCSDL

Molecular target: Acetylcholinesterase (Homo sapiens, UniProt P22303)
Test: Inhibition of human acetylcholine esterase-induced amyloid beta (1 to 40) aggregation at 100 uM by ThT-based fluorescence assay

SMILES: CN(CCCCNc1c2c(nc3ccccc13)CCCC2)CCCNc1c2c(nc3ccccc13)CCCC2
- inhibition: 50%
